# Tested on: mouse peritoneal macrophage
# Settings: Table 2; dose 5 μM; microscopic observation
compound,measurement,value
CN(C)C(=O)n1c(SCCCCCSc2nc3ccccc3n2C(=O)N(C)C)nc2ccccc21,Cytotoxicity,none

# From patent US5962493A, “2-mercaptobenzimidazole derivatives and antihyperlipemic agent or antiarteriosclerotic agent containing the same” (priority 1997, dated 1999)
